Laboratory results as given in patent US6683157B2, “Variant human α7 acetylcholine receptor subunit, and methods of production and use thereof” (priority 1996, dated 2004).

Sequences of proteins named here, by UniProt entry; tags and fusion partners are left off. Residues count along the entry.
UniProt P36544, 23-502 V274T: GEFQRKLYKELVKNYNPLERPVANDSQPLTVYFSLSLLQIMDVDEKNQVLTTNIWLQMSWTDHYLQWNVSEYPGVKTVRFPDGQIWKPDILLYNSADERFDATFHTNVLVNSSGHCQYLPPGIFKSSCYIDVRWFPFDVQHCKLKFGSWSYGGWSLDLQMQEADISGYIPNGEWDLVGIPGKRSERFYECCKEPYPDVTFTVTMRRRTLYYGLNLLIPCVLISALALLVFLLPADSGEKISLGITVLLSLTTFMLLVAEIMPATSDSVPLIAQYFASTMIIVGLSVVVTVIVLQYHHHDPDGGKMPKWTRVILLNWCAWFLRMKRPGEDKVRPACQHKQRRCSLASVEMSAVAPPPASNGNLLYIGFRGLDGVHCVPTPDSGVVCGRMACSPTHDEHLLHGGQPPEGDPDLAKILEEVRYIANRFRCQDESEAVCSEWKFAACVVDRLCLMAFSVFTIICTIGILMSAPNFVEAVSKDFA

Target: human α7V274T nAChR (Homo sapiens, UniProt P36544, V274T)
Assay: Agonist concentration-response, two-electrode voltage-clamp in Xenopus laevis oocytes

## Cc1ncccc1OC[C@@H]1CCCN1 [ABT-089]
  agonist type: partial agonist
Hill equation fit
  Hill coefficient: 2.3±0.4
